Compound activity deposited in PubChem BioAssay by National Center for Advancing Translational Sciences (NCATS).
An excerpt weighted towards active compounds, which were near 2.2% of everything screened.
Nrf2 inh: blocks Nrf2 signaling; A549 ARE-Fluc reporter, luciferase luminescence, 18-24 h; Potency, µM (highest dose often 46 µM), most hits filed as inhibitors; 360,000 tested, 2.1% active; further: nearly all actives have a fitted effect of over 60% in size
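A549 ARE_Fluc cells, 5000/well, 5% FBS OPTI-MEM; compounds in dose-response, 18-24 h at 37 °C/5% CO2; CellTiter-Fluor viability read (Ex 405/Em 525), then BugLite luciferase luminescence = Nrf2 activity.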
B2AR arrestin: beta2AR (human) beta-arrestin recruitment activity | Potency, µM (titrated, usually from 46.1 µM), hits mostly activators | P07550 | 330,000 tested, 0.02% active | beta-arrestin recruitment to beta2AR, cell-based reporter | AID 492947; further: nearly all actives have a fitted effect of over 65% in size
A549 tox: counter-screen for Nrf2 inhibitors: cytotoxicity in A549 cells. Potency, µM (top dose mostly 46 µM), most hits filed as inhibitors. AID 504648. A549 ARE-Fluc cells, CellTiter-Fluor viability, 18-24 h. 390,000 tested, 0.16% active
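A549 ARE_Fluc cells in 5% FBS OPTI-MEM were exposed to compounds in concentration-response for 18-24 h at 37 deg C. Viability was read by CellTiter-Fluor fluorescence (Ex 405/Em 525) after 30 min, before the luciferase read.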
Nrf2 ARE act: Nrf2 pathway activation | AREc32 ARE-luciferase reporter (MCF7-derived line), luminescence, 24 h | Potency, µM (series often up to 46.1 µM), hits mostly activators | 410,000 tested, 0.31% active; further: nearly all actives have a fitted effect of over 65% in size
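For detection, Steady-Glo was added and plates sat 30 min at RT; before that, AREc32_Fluc cells grown overnight in OPTI-MEM/5% FBS had been treated with 23 nL compound for 24 hr at 37 deg C.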
miR-21 FLuc: miR-21 reporter, rising signal. HeLa miR-21 FLuc reporter, luciferase, 48 h. Potency, µM (highest dose often 38.3 µM). 340,000 tested, under 10 active. AID 2288; active = well fitted rising curve with a large enough effect; inconclusive = small, poorly fitted or top-dose-only effect; inactive = no such curve, though single readings can be large or run the other way;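 further: miR-21 action dims this reporter so a rising signal means less miR-21 action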
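HeLa cells stably expressing CMV-driven firefly luciferase with a downstream miR-21 binding sequence, endogenously expressing miR-21, were treated with titrations (up to about 40uM final) for 48 hours at 37 degree Celsius. Luciferase luminescence was read after lysis.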
Large screens that a line does not name were inactive; ! = repeats disagree. Unless noted, the call rests on the fitted dose curve; in most records, active means well fitted curve in the direction sought with a large enough effect; inconclusive means small, poorly fitted or top-dose-only effect, or another doubt; inactive means no such curve, though single readings can be large; an effect the other way counts as inactive or inconclusive.

COc1ccc(CCNC(=O)[C@H](C)N2C(=O)N3CCc4c([nH]c5ccccc45)[C@@]3(C)C2=O)cc1OC	Nrf2 inh 16.4µM
COc1ccc(CCNC(=O)[C@H](C)N2C(=O)N3CCc4c([nH]c5ccccc45)[C@@]3(C)C2=O)cc1	Nrf2 inh 14.6µM
CC(Oc1ccccc1)C(=O)Nc1ccc(OCc2cc(=O)n3ccsc3n2)cc1 (stereo unspecified)	Nrf2 inh inconclusive (no result: B2AR arrestin)
O=C(NCc1ccccn1)c1ccc(COc2ccc(Cl)cc2)o1	Nrf2 inh 23.1µM
CCOc1cc(C2NN=C(c3ccccc3)S2)ccc1OCc1ccc(F)cc1 (stereo unspecified)	Nrf2 inh inconclusive, Nrf2 ARE act 11.2µM
O=C(NCCc1nc2ccccc2n1CCO)C1CCCCC1	none (no result: B2AR arrestin, Nrf2 ARE act, miR-21 FLuc)
Cc1nnc(Sc2cc(NCCO)c([N+](=O)[O-])c3nonc23)s1	Nrf2 inh inconclusive, A549 tox 25.9µM, miR-21 FLuc inconclusive
CC(/C=C/c1ccccc1)=N\NC(N)=S	B2AR arrestin 8.91µM
Nc1nccc(/C=C/c2c(Cl)cccc2Cl)n1	Nrf2 ARE act 11.2µM
COc1ccccc1N1CCN(Cc2ccc(-c3ccccc3[N+](=O)[O-])o2)CC1	Nrf2 inh 23.1µM
Cc1ccc(S(=O)(=O)N2CCC(C(=O)OCC(=O)N3CC(C)CC(C)C3)CC2)cc1C (stereo unspecified)	none (no result: miR-21 FLuc)
Cc1ccc(S(=O)(=O)N2CC(O)C[C@H]2C(=O)OCC(=O)N2CCN(c3ccc(F)cc3)CC2)cc1C (stereo partly specified)	Nrf2 inh 16.4µM (no result: B2AR arrestin, miR-21 FLuc)
CCOC(=O)c1c(Nc2ccc(OC)cc2)nnc(-c2ccccc2)c1-c1ccccc1	Nrf2 inh inconclusive, miR-21 FLuc inconclusive (no result: B2AR arrestin)
CCC(=O)Nc1ccc(OCc2cc(C3Nc4ccccc4C(=O)N3Cc3ccccc3)ccc2OC)cc1 (stereo unspecified)	Nrf2 inh inconclusive (no result: B2AR arrestin, Nrf2 ARE act, miR-21 FLuc)
c1ccc(N2CC3COc4ccccc4C3=N2)cc1 (stereo unspecified)	Nrf2 inh inconclusive, A549 tox inconclusive, Nrf2 ARE act 8.91µM (no result: B2AR arrestin, miR-21 FLuc)
CN=C1N[C@H](c2ccccc2)N(c2ccccc2)S1	none (no result: B2AR arrestin, Nrf2 ARE act, miR-21 FLuc)
COc1ccc(N(CC(C)C)S(=O)(=O)c2nnc(NC(=O)c3cccs3)s2)cc1	Nrf2 inh 20.6µM (no result: B2AR arrestin)
CCN(c1ccc(C)cc1)S(=O)(=O)c1nnc(NC(=O)c2cccs2)s1	Nrf2 inh inconclusive (no result: B2AR arrestin)
CCn1c(=O)c([N+](=O)[O-])c(N2CCSCC2)c2ccccc21	Nrf2 inh 16.4µM
O=C(c1ccc(S(=O)(=O)Cc2cc(F)ccc2F)c([N+](=O)[O-])c1)N1CCCCC1	Nrf2 ARE act inconclusive
O=C(c1ccc(S(=O)(=O)Cc2cc(F)ccc2F)c([N+](=O)[O-])c1)N1CCCC1	Nrf2 inh inconclusive, Nrf2 ARE act 8.91µM
CCn1c(=O)c(C(=O)CN2c3ccccc3CC2C)c(N)n(Cc2ccccc2)c1=O (stereo unspecified)	Nrf2 inh inconclusive
CCn1c(=O)c(C(=O)CN2CCCc3ccccc32)c(N)n(Cc2ccccc2)c1=O	Nrf2 inh 16.4µM
N#CN1CCC(NC(=O)c2ccc(C(F)(F)F)cc2)CC1	none (no result: B2AR arrestin, Nrf2 ARE act, miR-21 FLuc)
CCN1/C(=C/C=C/C=C/C=C/c2sc3ccccc3[n+]2CC)Sc2ccccc21	Nrf2 inh 20.6µM, A549 tox inconclusive
CC(C)Oc1ccc(CNC(=O)c2ccc(NC(=O)N3CCSc4ncccc43)cc2)cc1	Nrf2 inh inconclusive (no result: B2AR arrestin)
CCc1ccccc1N1CC(c2nc3ccccc3n2CCC2CCCCC2)CC1=O (stereo unspecified)	Nrf2 inh inconclusive, A549 tox inconclusive, miR-21 FLuc inconclusive (no result: B2AR arrestin)
Cc1ccccc1N1CC(c2nc3ccccc3n2CCC2CCCCC2)CC1=O (stereo unspecified)	Nrf2 inh 23.1µM (no result: B2AR arrestin)
CC(C)n1c(-c2ccco2)csc1=Nc1cccnc1	Nrf2 inh 12.6µM
COCc1ccc(C(=O)NC2CCCc3c2cnn3-c2ccc(C)c(C)c2)o1 (stereo unspecified)	Nrf2 inh 14.6µM
CCCC(=O)Nc1cc(-c2nnc(OC)c3ccccc23)ccc1N1CCCCC1	none (no result: Nrf2 inh, A549 tox, Nrf2 ARE act)
COc1nnc(-c2ccc(N3CCCCC3)c(N)c2)c2ccccc12	Nrf2 inh 20.6µM (no result: B2AR arrestin, miR-21 FLuc)
COc1ccc(NS(=O)(=O)c2ccccc2C(=O)O)cc1	none (no result: B2AR arrestin, Nrf2 ARE act, miR-21 FLuc)
COC(=O)c1c(C(=O)OC)c(-c2ccc(C)cc2)n2c1CCC2	none (no result: Nrf2 inh)
COC(=O)c1c(C(=O)OC)c(-c2ccc(Cl)c(Cl)c2)n2c1CCC2	Nrf2 inh 18.4µM
CC(OC(=O)CCCSc1nc2ccccc2s1)C(=O)NC(N)=O (stereo unspecified)	Nrf2 inh 16.4µM
COc1ccc(C(=O)c2sc3nc(C)cc(-c4cccs4)c3c2N)cc1OC	Nrf2 inh 10.3µM
O=[N+]([O-])c1cccc(S(=O)(=O)N2CCN(S(=O)(=O)c3ccc4c(c3)OCCO4)CC2)c1	none (no result: B2AR arrestin, Nrf2 ARE act, miR-21 FLuc)
CCC1CCCCN1CC(=O)Nc1cc(C)nn1-c1nc(C)cc(C)n1 (stereo unspecified)	Nrf2 inh inconclusive, B2AR arrestin 35.5µM
Cc1cc(C)nc(-n2nc(C)cc2NC(=O)CN2CCCC2)n1	B2AR arrestin inconclusive
O=C(Nc1ncc(Cc2ccccc2)s1)C1CCN(C(=O)c2ccco2)CC1	Nrf2 inh 20.6µM (no result: B2AR arrestin, Nrf2 ARE act, miR-21 FLuc)
CC(C)(C)c1nnc(NC(=O)C2CCN(C(=O)c3ccco3)CC2)s1	Nrf2 inh inconclusive
CCC1CN(C(=O)NCc2ccc(C)cc2)c2cc(C)ccc2O1 (stereo unspecified)	Nrf2 inh 20.6µM!, A549 tox inconclusive, miR-21 FLuc inconclusive
Cc1ccc(Cn2c(=O)c3cccnc3n(CC(=O)Nc3cccc(C(F)(F)F)c3)c2=O)cc1	Nrf2 inh 5.8µM
O=C(Cn1c(=O)n(Cc2ccc(Cl)cc2)c(=O)c2cccnc21)Nc1ccccc1C(F)(F)F	none (no result: B2AR arrestin)
COc1ccc(CNc2ncnc3cc(Cl)ccc23)cc1OC	Nrf2 inh 16.4µM
COc1ccc(CNc2ncnc3sccc23)cc1	Nrf2 inh 10.3µM
c1ccc(CNc2ncnc3sccc23)cc1	none
COc1ccccc1CNc1ncnc2cc(Cl)ccc12	Nrf2 inh inconclusive
COc1ccc(CNc2ncnc3sccc23)cc1OC	Nrf2 inh 10.3µM
c1ccc(CCNc2ncnc3sccc23)nc1	Nrf2 inh 8.2µM, A549 tox inconclusive
COc1ccc(C(CNc2ncnc3sccc23)N(C)C)cc1OC (stereo unspecified)	none
Cc1csc2ncnc(NCCc3ccccn3)c12	none
COc1cc(OC)c2c(c1)C(=O)OC2c1cc(OC)c(OC)cc1C (stereo unspecified)	none (no result: B2AR arrestin, Nrf2 ARE act, miR-21 FLuc)
Cn1c(=O)c2c(nc(NCc3ccccc3)n2Cc2ccc(Cl)c(Cl)c2)n(C)c1=O	Nrf2 inh inconclusive, A549 tox inconclusive, miR-21 FLuc inconclusive (no result: B2AR arrestin)
Cc1ccc(Nc2nc(Nc3ccc(C)cc3)nc(SC3=NCCS3)n2)cc1	Nrf2 inh inconclusive
Cc1ccccc1Nc1nc(Nc2ccccc2C)nc(SC2=NCCS2)n1	Nrf2 inh 25.9µM
